Tested on: blood-testis barrier (BTB)
Conditions: busulfan model mice; riluzole intraperitoneal 3, 6 mg/kg for 7 days; biotin labeling

Structure (SMILES): Nc1nc2ccc(OC(F)(F)F)cc2s1 [riluzole, 2-amino-6-trifluomethoxy-benzothiazole]
- integrity of the blood-testis barrier of the mouse testis: more complete

Source: patent US12691103B2 (Jinan University, priority 2022, dated 2026)
